Reference: PubChem BioAssay AID1053197 (The Scripps Research Institute Molecular Screening Center, 2014)
The entries are a selection whose mix differs from that of the whole data set. Calls of active or inactive are those of the source.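 How the source made its calls: active means inhibition above a cutoff: mean of compounds within the control limits plus 3 SD of those (cut at about 17% in these data); inactive means the rest.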

The chains behind the UniProt entries cited, without tags or fusion partners.
UniProt Q9HAT2, whole entry: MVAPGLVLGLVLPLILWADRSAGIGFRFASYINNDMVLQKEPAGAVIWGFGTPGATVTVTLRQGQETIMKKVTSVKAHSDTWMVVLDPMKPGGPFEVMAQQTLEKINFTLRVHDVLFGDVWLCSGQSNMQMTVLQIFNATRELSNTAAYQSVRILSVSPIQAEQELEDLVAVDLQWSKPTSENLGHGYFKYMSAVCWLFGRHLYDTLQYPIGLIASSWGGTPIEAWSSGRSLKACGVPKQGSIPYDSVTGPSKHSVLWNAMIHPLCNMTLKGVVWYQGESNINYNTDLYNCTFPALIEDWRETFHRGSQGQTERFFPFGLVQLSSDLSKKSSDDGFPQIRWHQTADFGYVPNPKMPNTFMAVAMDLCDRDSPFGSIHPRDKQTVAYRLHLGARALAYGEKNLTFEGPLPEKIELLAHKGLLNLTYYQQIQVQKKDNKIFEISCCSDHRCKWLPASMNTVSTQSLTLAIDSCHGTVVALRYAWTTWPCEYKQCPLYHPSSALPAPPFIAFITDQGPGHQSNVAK

What follows are molecules tested against Sialate O-acetylesterase (Homo sapiens) (UniProt Q9HAT2) (assay: blockers of sialate O-acetylesterase activity-probe labeling – biochemical, fluorescence polarization, FP-Rh probe, 1536-well HTS, primary screen (AID 1053197;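 further: 0% = plate median of compound wells and 100% = probe without SIAE protein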)). Settings: SIAE FP-Rh probe binding, at 9.66 µM, hits give high values.
COc1cc(C(=O)NCC2(N3CCOCC3)CCCCC2)cc(OC)c1C was tested, and the inhibition was inactive: -9.08%.
In the case of CCCCn1nnnc1C(c1ccccc1)N1CCC(n2c(=O)[nH]c3ccccc32)CC1 (stereo not drawn), the inhibition is reported as inactive: -3.23%.
For O=C(NCC1(N2CCOCC2)CCCCC1)c1cc(Br)ccc1Cl, the inhibition was inactive: 8.03%.
In the case of NC(=O)C1(Nc2ccccc2)CCN(Cc2ccccc2)CC1, the inhibition is reported as inactive: -6.59%.
In the case of O=c1[nH]c2ccccc2n1C1CCN(C(c2cccs2)c2nnnn2C2CCCCC2)CC1 (stereo not drawn), the inhibition is reported as inactive: 0.87%.
With O=c1[nH]c2ccccc2n1C1CCN(C(c2ccnc3ccccc23)c2nnnn2C2CCCC2)CC1 (stereo not drawn) the inhibition was inactive: -1.35%.
For COc1ccc(C(=O)NCC2(N3CCOCC3)CCCCC2)cc1OC, the inhibition was inactive: 3.02%.
With CCOC(=O)N1CCC(Nc2ccc(C)cc2)CC1 the inhibition was inactive: -1.36%.
With COc1cccc(C(c2nnnn2C(C)(C)C)N2CCC(n3c(=O)[nH]c4ccccc43)CC2)c1OC (stereo not drawn) the inhibition was inactive: 4.66%.
In the case of N/C(=N\O)c1c(N)no[n+]1[O-], the inhibition is reported as inactive: 0.78%.
With O=c1[nH]c2ccccc2n1C1CCN(C(c2cccs2)c2nnnn2C2CCCC2)CC1 (stereo not drawn) the inhibition was inactive: -6.44%.
O=C(OC1CN2CCC1CC2)C1c2ccccc2C=Cc2ccccc21 (stereo not drawn) was tested, and the inhibition was inactive: -0.74%.
For CCCCn1nnnc1C(c1cccc(OC)c1OC)N1CCC(n2c(=O)[nH]c3ccccc32)CC1 (stereo not drawn), the inhibition was inactive: 2.25%.
N#Cc1ccc(C(=O)NCC2(N3CCCCC3)CCCCC2)cc1 was tested, and the inhibition was inactive: -0.05%.
In the case of CC(C)(C)OC(=O)N1CCC(N(C(=O)c2ccccc2)c2ccc(Cl)cc2)CC1, the inhibition is reported as inactive: -4.45%.
With CN(C)C1(CNC(=O)c2cccc(C#N)c2)CCCCC1 the inhibition was inactive: -4.15%.
For Cc1cc(N(CCCl)CCCl)ccc1C=O, the inhibition was inactive: -2.51%.
CCCN1CCC(Nc2cc(OC)cc(OC)c2)CC1 was tested, and the inhibition was inactive: -3.07%.
With O=c1[nH]c2ccccc2n1C1CCN(C(c2ccccc2)c2nnnn2C2CCCC2)CC1 (stereo not drawn) the inhibition was inactive: -0.26%.
In the case of C/C(N)=N\P(=O)(Oc1ccccc1)Oc1ccccc1, the inhibition is reported as inactive: -4.58%.
In the case of c1ccc(CN2CCC(Nc3ccccc3)CC2)cc1, the inhibition is reported as inactive: 3.68%.
For CC(C)(C)n1nnnc1C(c1cccc2ccccc12)N1CCC(n2c(=O)[nH]c3ccccc32)CC1 (stereo not drawn), the inhibition was inactive: -6.73%.
For O=C(NCC1(N2CCCCC2)CCCCC1)c1ccc(OC(F)F)cc1, the inhibition was inactive: -2.3%.
For CC(C)(C)n1nnnc1C(c1ccccc1OC(F)(F)F)N1CCC(n2c(=O)[nH]c3ccccc32)CC1 (stereo not drawn), the inhibition was inactive: -6.22%.
For O=c1[nH]c2ccccc2n1C1CCN(C(c2ccccc2OC(F)(F)F)c2nnnn2C2CCCC2)CC1 (stereo not drawn), the inhibition was inactive: -4.41%.
For N#CC1(Nc2ccccc2)CCN(CCc2ccccc2)CC1, the inhibition was inactive: -1.96%.
CCN1CCC(Nc2ccc(Cl)cc2)CC1 was tested, and the inhibition was inactive: 1.32%.
O=C(NCC1(N2CCCCC2)CCCCC1)c1cccc([N+](=O)[O-])c1 was tested, and the inhibition was inactive: -7.09%.
In the case of CSc1ccc(C(=O)NCC2(N3CCOCC3)CCCCC2)cc1, the inhibition is reported as inactive: -1.31%.
In the case of O=C(NCC1(N2CCCCC2)CCCCC1)c1cccc(C(F)(F)F)c1, the inhibition is reported as inactive: -5.43%.
O=C(NCC1(N2CCOCC2)CCCCC1)c1cc(=O)[nH]c2ccccc12 was tested, and the inhibition was inactive: 3.48%.
COc1cc(C(=O)NCC2(N3CCCCC3)CCCCC2)ccc1OC(F)F was tested, and the inhibition was inactive: 10.5%.
With CC(C)c1ccc(C(=O)NCC2(N3CCOCC3)CCCCC2)cc1 the inhibition was inactive: 5.69%.
With COc1ccc(NC2CCN(C(=O)OC(C)(C)C)CC2)cc1 the inhibition was inactive: 5.85%.
In the case of CN1CCN(CCOC(=O)C(O)(c2ccccc2)c2ccccc2)CC1, the inhibition is reported as inactive: -1.67%.
In the case of CCCCn1nnnc1C(c1cccc2ccccc12)N1CCC(n2c(=O)[nH]c3ccccc32)CC1 (stereo not drawn), the inhibition is reported as inactive: -5.38%.
For CC(C)c1ccc(NC2CCN(C(=O)OC(C)(C)C)CC2)cc1, the inhibition was inactive: 8.81%.
With CN(C)c1cccc(C(=O)NCC2(N3CCCCC3)CCCCC2)c1 the inhibition was inactive: 3.84%.
COc1ccc(CN(CCCl)CCCl)cc1Cl was tested, and the inhibition was inactive: -4.15%.
In the case of COC(=O)C1(Nc2ccccc2)CCN(Cc2ccccc2)CC1, the inhibition is reported as inactive: 4.24%.
CCC(c1nnnn1C(C)(C)C)N1CCC(n2c(=O)[nH]c3ccccc32)CC1 (stereo not drawn) was tested, and the inhibition was inactive: 0.77%.
With O=C(NCC1(N2CCOCC2)CCCCC1)c1cc(F)c(F)cc1Cl the inhibition was inactive: 3.76%.
With COc1cc(OC)c(C(=O)NCC2(N(C)C)CCCCC2)cc1OC the inhibition was inactive: 1.91%.
With CCCCn1nnnc1C(c1ccnc2ccccc12)N1CCC(n2c(=O)[nH]c3ccccc32)CC1 (stereo not drawn) the inhibition was inactive: 4.93%.
For CN1CCC(Nc2cccc(F)c2)CC1, the inhibition was inactive: 5.84%.
In the case of O=C(NCC1(N2CCCCC2)CCCCC1)c1cncc(Br)c1, the inhibition is reported as inactive: -0.5%.
In the case of COc1ccc(C(c2nnnn2C2CCCC2)N2CCC(n3c(=O)[nH]c4ccccc43)CC2)cc1 (stereo not drawn), the inhibition is reported as inactive: -3.04%.
With CCCOc1ccc(C(=O)NCC2(N(C)C)CCCCC2)cc1OC the inhibition was inactive: -5.85%.
Cc1ccc(C(=O)NCC2(N(C)C)CCCCC2)o1 was tested, and the inhibition was inactive: 0.81%.
In the case of CC(C)(C)OC(=O)N1CCC(N(C(=O)c2ccccc2)c2ccc(F)cc2)CC1, the inhibition is reported as inactive: 6.78%.
COc1ccc(C(=O)NCC2(N3CCCCC3)CCCCC2)c(OC)c1OC was tested, and the inhibition was inactive: -0.78%.
CCC(c1nnnn1C1CCCC1)N1CCC(n2c(=O)[nH]c3ccccc32)CC1 (stereo not drawn) was tested, and the inhibition was active: 17.7%.
COc1ccc(C(=O)NCC2(N3CCCCC3)CCCCC2)cc1 was tested, and the inhibition was inactive: 1.18%.
In the case of O=C(NCC1(N2CCCCC2)CCCCC1)c1cccs1, the inhibition is reported as inactive: 5.9%.
CCCCn1nnnc1C(CC)N1CCC(n2c(=O)[nH]c3ccccc32)CC1 (stereo not drawn) was tested, and the inhibition was inactive: 1.82%.
CCCCn1nnnc1C(c1cccs1)N1CCC(n2c(=O)[nH]c3ccccc32)CC1 (stereo not drawn) was tested, and the inhibition was inactive: 6.15%.
For O=C(NCC1(N2CCCCC2)CCCCC1)c1ccc(=O)[nH]c1, the inhibition was inactive: 1.82%.
With Cc1cccc(NC2(C#N)CCN(Cc3ccccc3)CC2)c1 the inhibition was inactive: -0.22%.
In the case of CSc1ccccc1C(=O)NCC1(N2CCCCC2)CCCCC1, the inhibition is reported as inactive: 3.28%.
With Cc1cc(C)cc(N(C(=O)c2ccccc2)C2CCN(C(=O)OC(C)(C)C)CC2)c1 the inhibition was inactive: 1.57%.
O=C(NCC1(N2CCCCC2)CCCCC1)c1ccc(Cl)nc1 was tested, and the inhibition was inactive: 1.57%.
With O=c1[nH]c2ccccc2n1C1CCN(C(c2ccccc2OC(F)(F)F)c2nnnn2C2CCCCC2)CC1 (stereo not drawn) the inhibition was inactive: -4.38%.
O=C(NCC1(N2CCOCC2)CCCCC1)c1cc2ccccc2o1 was tested, and the inhibition was inactive: -3%.
For COc1ccc(Cl)cc1C(=O)NCC1(N2CCOCC2)CCCCC1, the inhibition was inactive: -14.2%.
For O=C(NCC1(N2CCCCC2)CCCCC1)c1ccc(Cl)s1, the inhibition was inactive: -5.01%.
For N#CC1(Nc2ccccc2)CCN(Cc2ccccc2)CC1, the inhibition was inactive: 4.26%.
With O=c1[nH]c2ccccc2n1C1CCN(C(c2cc3ccccc3o2)c2nnnn2C2CCCCC2)CC1 (stereo not drawn) the inhibition was inactive: -10.2%.
In the case of O=C(OC1CN2CCC1CC2)C1c2ccccc2Oc2ccccc21 (stereo not drawn), the inhibition is reported as inactive: 7.34%.
With CCCCn1nnnc1C(c1ccc(OC)cc1)N1CCC(n2c(=O)[nH]c3ccccc32)CC1 (stereo not drawn) the inhibition was inactive: -4.37%.
With CCOC(=O)N1CCC(Nc2ccc(OC)cc2)CC1 the inhibition was inactive: 2.39%.
In the case of O=C1CCN(Cc2ccccc2)CC1, the inhibition is reported as inactive: -1.61%.
In the case of CC(C)(C)n1nnnc1C(c1ccccc1)N1CCC(n2c(=O)[nH]c3ccccc32)CC1 (stereo not drawn), the inhibition is reported as inactive: -0.52%.
For CCOc1ccc(C)cc1CN(CCCl)CCCl, the inhibition was inactive: 1.33%.
For CCOC(=O)N1CCC(Nc2ccc(F)cc2)CC1, the inhibition was inactive: -3.2%.
In the case of COc1ccc(NC2CCN(CCc3ccccc3)CC2)c(OC)c1, the inhibition is reported as inactive: -2.9%.
For CCCCOc1ccc(C(=O)NCC2(N3CCOCC3)CCCCC2)cc1, the inhibition was inactive: 2.06%.
With CCCCn1nnnc1C(c1cc2ccccc2o1)N1CCC(n2c(=O)[nH]c3ccccc32)CC1 (stereo not drawn) the inhibition was inactive: -2.93%.
With O=P1(N(CCCl)CCCl)SCCCS1 the inhibition was inactive: -3.34%.
With O=C(NCC1(N2CCCCC2)CCCCC1)c1ccc(F)cc1 the inhibition was inactive: 0.96%.
For O=c1[nH]c2ccccc2n1C1CCN(C(c2ccccc2)c2nnnn2C2CCCCC2)CC1 (stereo not drawn), the inhibition was inactive: -1.12%.
For CCOC(=O)N1CCC(Nc2cccc(C)c2)CC1, the inhibition was inactive: -3.12%.
For COc1cc(C(=O)NCC2(N(C)C)CCCCC2)ccc1OC(F)F, the inhibition was inactive: -5.2%.
In the case of O=c1[nH]c2ccccc2n1C1CCN(C(c2cccc3ccccc23)c2nnnn2C2CCCC2)CC1 (stereo not drawn), the inhibition is reported as inactive: -11%.
